From publication PMC12615753, “Glutathione as a taste modulator: molecular mechanisms of interaction with umami and sweet taste receptors” (Food Chemistry: Molecular Sciences, 2025)

Amino acid sequences for entries named in this document (tags omitted). A change or cut given only in a name is not applied to a line headed by its entry. Residues count along the entry.
UniProt Q7RTX1, 21-841: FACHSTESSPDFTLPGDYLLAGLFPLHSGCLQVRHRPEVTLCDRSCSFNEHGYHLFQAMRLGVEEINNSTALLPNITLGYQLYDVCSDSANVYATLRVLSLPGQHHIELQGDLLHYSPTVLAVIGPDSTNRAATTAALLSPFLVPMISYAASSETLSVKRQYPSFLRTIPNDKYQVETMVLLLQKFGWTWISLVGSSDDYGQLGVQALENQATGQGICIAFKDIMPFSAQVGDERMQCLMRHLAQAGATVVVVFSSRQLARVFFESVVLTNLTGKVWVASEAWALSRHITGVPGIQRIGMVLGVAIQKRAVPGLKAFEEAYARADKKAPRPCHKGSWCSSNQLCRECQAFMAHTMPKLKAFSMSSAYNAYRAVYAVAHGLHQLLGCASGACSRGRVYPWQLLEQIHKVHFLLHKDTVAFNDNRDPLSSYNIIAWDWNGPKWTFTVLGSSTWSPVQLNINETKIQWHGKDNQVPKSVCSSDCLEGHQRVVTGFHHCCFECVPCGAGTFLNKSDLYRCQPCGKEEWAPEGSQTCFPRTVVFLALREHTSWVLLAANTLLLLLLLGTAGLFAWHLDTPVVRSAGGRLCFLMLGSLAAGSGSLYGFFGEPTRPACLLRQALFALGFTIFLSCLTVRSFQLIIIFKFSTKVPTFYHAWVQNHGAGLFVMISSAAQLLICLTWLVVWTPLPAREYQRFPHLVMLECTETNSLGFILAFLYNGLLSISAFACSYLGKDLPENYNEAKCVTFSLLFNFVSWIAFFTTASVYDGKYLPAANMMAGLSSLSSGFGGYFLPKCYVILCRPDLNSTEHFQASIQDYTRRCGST
UniProt Q923K1, 21-858 R173L/E221Q: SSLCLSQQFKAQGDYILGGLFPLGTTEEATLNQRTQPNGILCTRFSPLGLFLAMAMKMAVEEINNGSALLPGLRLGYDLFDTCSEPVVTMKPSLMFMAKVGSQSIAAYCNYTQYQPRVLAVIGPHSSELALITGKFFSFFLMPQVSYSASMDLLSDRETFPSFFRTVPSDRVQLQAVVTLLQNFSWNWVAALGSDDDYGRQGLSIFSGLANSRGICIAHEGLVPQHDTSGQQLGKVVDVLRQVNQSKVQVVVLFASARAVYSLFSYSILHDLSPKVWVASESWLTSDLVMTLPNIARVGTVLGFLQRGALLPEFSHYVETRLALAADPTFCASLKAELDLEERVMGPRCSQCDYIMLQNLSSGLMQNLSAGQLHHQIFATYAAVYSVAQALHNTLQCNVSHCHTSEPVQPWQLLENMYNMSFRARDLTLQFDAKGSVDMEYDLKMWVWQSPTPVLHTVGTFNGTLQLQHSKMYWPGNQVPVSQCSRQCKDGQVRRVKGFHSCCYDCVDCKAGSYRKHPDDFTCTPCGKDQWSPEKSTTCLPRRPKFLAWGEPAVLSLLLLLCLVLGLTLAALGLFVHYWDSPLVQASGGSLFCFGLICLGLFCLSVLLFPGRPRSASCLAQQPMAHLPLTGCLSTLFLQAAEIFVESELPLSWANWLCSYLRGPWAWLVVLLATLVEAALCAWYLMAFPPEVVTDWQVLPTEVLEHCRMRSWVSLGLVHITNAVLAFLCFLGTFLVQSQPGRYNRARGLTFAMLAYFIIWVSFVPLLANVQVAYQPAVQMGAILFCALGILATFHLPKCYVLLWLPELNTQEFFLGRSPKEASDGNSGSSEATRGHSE
UniProt Q8TE23, 20-839: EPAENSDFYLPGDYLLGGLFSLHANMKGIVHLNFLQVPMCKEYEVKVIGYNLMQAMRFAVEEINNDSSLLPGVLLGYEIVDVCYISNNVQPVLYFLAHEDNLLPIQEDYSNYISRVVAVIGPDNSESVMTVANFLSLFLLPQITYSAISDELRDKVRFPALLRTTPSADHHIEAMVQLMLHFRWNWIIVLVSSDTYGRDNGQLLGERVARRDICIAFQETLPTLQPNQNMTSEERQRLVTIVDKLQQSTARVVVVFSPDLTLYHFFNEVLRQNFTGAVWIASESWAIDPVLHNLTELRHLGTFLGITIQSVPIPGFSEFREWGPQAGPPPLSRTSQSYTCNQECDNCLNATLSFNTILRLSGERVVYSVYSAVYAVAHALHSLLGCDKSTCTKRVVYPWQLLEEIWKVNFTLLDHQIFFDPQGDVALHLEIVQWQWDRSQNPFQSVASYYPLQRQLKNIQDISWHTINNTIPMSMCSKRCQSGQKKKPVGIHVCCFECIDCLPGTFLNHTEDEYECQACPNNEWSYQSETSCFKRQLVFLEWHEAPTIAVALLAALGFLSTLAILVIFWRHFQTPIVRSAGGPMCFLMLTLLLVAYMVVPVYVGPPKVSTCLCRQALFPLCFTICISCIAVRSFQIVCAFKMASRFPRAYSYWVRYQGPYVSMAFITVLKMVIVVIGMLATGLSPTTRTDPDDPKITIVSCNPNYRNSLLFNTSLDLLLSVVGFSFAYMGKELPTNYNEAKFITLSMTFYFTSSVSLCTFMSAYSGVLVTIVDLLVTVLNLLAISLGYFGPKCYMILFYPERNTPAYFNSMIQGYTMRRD

Tests used:
hTAS1R1/rTAS1R3(Mut3) = hTAS1R1/rTAS1R3(Mut3) (UniProt Q7RTX1+Q923K1, E221Q/R173L); assay: Calcium assay, mutated rTAS1R3 co-expressed with hTAS1R1; conditions: for response to the agonist alone: Mut3
hTAS1R2/rTAS1R3(Mut3) = target: T1, hTAS1R2/rTAS1R3(Mut3) (UniProt Q8TE23+Q923K1, E221Q/R173L); assay: Calcium assay, mutated rTAS1R3 co-expressed with hTAS1R2; assay type: cell-based, human, rat; conditions: sucralose alone, Fig. 4A
T1 construct: The cDNA coding region of rTAS1R3 was synthesized with optimized-codon usage for human expression; expressed in transfected cells

| EC50 (hTAS1R2/rTAS1R3(Mut3)) [µM] | EC50 (hTAS1R1/rTAS1R3(Mut3)) [nM] | Compound | response to the agonist alone (hTAS1R1/rTAS1R3(Mut3)) |
| --- | --- | --- | --- |
| – | – | N[C@@H](CCC(=O)O)C(=O)O [L-Glu, L-glutamic acid, reference compound] | abolished |
| 339 ± 78 | – | OC[C@H]1O[C@H](O[C@]2(CCl)O[C@H](CCl)[C@@H](O)[C@@H]2O)[C@H](O)[C@@H](O)[C@H]1Cl [sucralose, reference compound] | – |
| – | 1400 ± 210 | CCCC(CCC)NC(=O)c1ccc2c(c1)OCO2 [S807, N-(heptan-4-yl)benzo[d][1,3]dioxole-5-carboxamide, reference compound] | severely impaired |
